Targets include Shc1-pTyr317; EGFR-pTyr1086; VCP-pTyr805-tail7; Shc1-pTyr239; MidT-pTyr324.
Assay in all cases: FP
Holding throughout (details): domain or fragment

Assay [1] has as its target DnaJ-A1-pTyr381 ∆N peptide (human) (UniProt P31689).

Turning to “L. pneumophila RavO SH2 domain (Gly212-Asp406) (from UniProt Q5ZWF6 212-406)”, the Kd in the assay with Shc1-pTyr317 turned out to be 1.14 µM; in the assay with EGFR-pTyr1086 it was 7.06 µM; in assay [1], 17.6 µM; in the assay with VCP-pTyr805-tail7 it was 10.1 µM; with Shc1-pTyr239, 0.2 µM; in the assay with MidT-pTyr324, 6.6 µM.
“L. longbeachae LUSH SH2 domain (Ser3-Ser171)” showed a Kd with EGFR-pTyr1086 of 1.64 µM.

What is called Kd is the concentration at which binding is half-saturated. A low value points to a tighter complex.

(Values after PMC6208348.)
